## Ab-14 heavy chain CDR variants: yeast mating affinities

Binding partner: SARS-CoV-2 spike HR2 peptide, sequence PDVDLGDISGINAS.

The variants keep the light chain, the linker and the frameworks of Ab-14 (scFv order VH, the linker GGGGSGGGGSGGGGS, VL).
VH: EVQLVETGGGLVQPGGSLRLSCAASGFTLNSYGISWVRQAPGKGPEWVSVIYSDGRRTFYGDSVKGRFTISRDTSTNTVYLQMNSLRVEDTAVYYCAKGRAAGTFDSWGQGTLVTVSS
VL: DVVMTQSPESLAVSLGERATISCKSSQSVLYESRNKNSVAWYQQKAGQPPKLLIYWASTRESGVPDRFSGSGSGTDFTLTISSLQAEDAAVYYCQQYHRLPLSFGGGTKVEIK

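The starting antibody came from a phage panning campaign against this peptide. These sequences belong to a second round, designed from the earlier measurements on random variants of the parent. Their group label is 14H_GPLM_HC (GPLM: also part of the Gaussian process libraries; HC: hill climbing; a sequence that several methods proposed may carry one label only). The scFvs were displayed on barcoded MATa yeast, the peptide on MATalpha yeast. The frequency of each diploid, read from paired DNA barcodes, reflects how well the two displayed proteins bind. Each replicate has its own calibration line, from reference interactions of the BCL2 family. Mating was done six times.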

Positions count from residue 1 of the parent VH; S31E puts E in place of S. Affinities are written as log10 Kd with Kd in nM; a lower number is a better binder. The mean shown is taken over the replicates in which the pair was detected. A pair that was not seen in that replicate is written "n.d."; this usually means weak binding, but a binder can also be missed. Values of this round are not directly comparable with the first-round values of the same sequences. In the paper, a design with two or fewer of six values counts as a poor binder. Nonspecific signal, from three strains lacking the peptide, appeared in 1% of pairings of all heavy chain designs, centred on 2.08 (5% of these signals below 0.84); values are not corrected for it. For each scFv, signals with the empty controls are counted beside the result, with their mean in brackets. Of ten entries with the parent sequence, four were seen in most replicates (averages 0.34 to 2.37), three in one and three in none, so single entries are noisy.

changes,"log10 Kd, replicates","log10 Kd (nM), mean",empty controls
S31E G61S T104K,n.d. 1.97 n.d. n.d. n.d. n.d.,1.97,0 of 18
S31D G61S T104K,n.d. n.d. n.d. n.d. n.d. n.d.,n.d.,1 of 18 (2.40)
F59M G61I R100Q,n.d. n.d. 0.42 0.82 n.d. n.d.,0.62,0 of 18
S31D D106I S107Q,n.d. n.d. n.d. n.d. n.d. n.d.,n.d.,0 of 18
R56L G61S A102G,n.d. 1.98 1.92 2.12 1.96 1.47,1.89,0 of 18
S31E G61K A101N,-0.18 0.08 0.10 -0.34 -0.18 -0.07,-0.10,0 of 18
T28D G61V A101E,1.21 0.97 0.76 1.13 1.14 0.91,1.02,0 of 18
R56H R100Q A101L,0.63 n.d. n.d. n.d. n.d. n.d.,0.63,0 of 18
S31E G103L D106W S107F,n.d. n.d. n.d. n.d. n.d. n.d.,n.d.,1 of 18 (2.37)
S31Q R56Q G61S A101T,-0.27 -0.38 0.01 -0.27 -0.35 0.08,-0.20,0 of 18
S31E G103A S107Q,n.d. n.d. n.d. n.d. n.d. n.d.,n.d.,0 of 18
S31E A101I S107M,1.00 0.82 1.29 0.12 0.37 0.22,0.64,0 of 18
R56V G61D R100Q A101L,0.52 0.81 0.47 0.26 0.38 0.94,0.56,1 of 18 (1.50)
S31D D106T S107Q,n.d. n.d. n.d. n.d. n.d. n.d.,n.d.,0 of 18
S31E G61M A101Y,n.d. 1.06 n.d. n.d. 2.73 n.d.,1.89,0 of 18
T28W S31E G61M A101T,2.86 1.48 2.75 1.41 2.86 1.75,2.19,0 of 18
T28D A101T T104S D106N,3.08 3.01 1.78 3.51 2.55 n.d.,2.78,0 of 18
S31E G61T S63Q A101F,1.45 0.81 3.33 0.71 3.35 1.78,1.90,0 of 18
S31D D106R,n.d. n.d. n.d. n.d. n.d. n.d.,n.d.,0 of 18
R56L G61S,1.00 0.69 1.42 0.52 0.92 0.88,0.90,0 of 18
T28Y G61D R100Q A101L,n.d. 1.61 n.d. n.d. 0.85 n.d.,1.23,0 of 18
S31E G61T A101F D106S,2.00 2.46 1.31 1.57 1.59 1.59,1.75,0 of 18
S31D G61A D106I,n.d. n.d. n.d. n.d. n.d. n.d.,n.d.,0 of 18
G61S R100L A102G S107T,1.37 n.d. 0.37 0.11 0.25 1.43,0.71,0 of 18
T28D G61S R100S A102G,n.d. n.d. n.d. n.d. n.d. n.d.,n.d.,0 of 18
G26L S31E G61T A101T,0.56 2.09 0.45 2.66 0.61 0.38,1.12,0 of 18
T28D G103W,n.d. n.d. 2.75 n.d. n.d. 3.05,2.90,1 of 18 (2.55)
T28G S31E G61I R100K,0.38 0.48 -0.37 0.33 0.43 0.17,0.24,2 of 18 (2.03)
T28D F59A D106V,1.42 n.d. n.d. n.d. n.d. n.d.,1.42,0 of 18
G61D S63Q R100Q A101L,2.26 2.16 2.41 2.35 1.81 2.10,2.18,1 of 18 (2.68)
T28Q G61S R100W,n.d. n.d. n.d. n.d. n.d. n.d.,n.d.,0 of 18
S31D R56W F59Q G61I,n.d. n.d. n.d. 4.32 n.d. n.d.,4.32,0 of 18
S31E S63N G103V S107Q,n.d. n.d. n.d. n.d. n.d. n.d.,n.d.,0 of 18
T28S S31Q G61S R100T,-0.54 -0.52 -0.49 -0.39 -0.72 -0.33,-0.50,0 of 18
S31E G103V S107N,-0.36 -0.35 -0.20 -0.79 -1.08 -0.77,-0.59,0 of 18
T28N S53A F105N,n.d. n.d. n.d. n.d. n.d. n.d.,n.d.,0 of 18
T28E G61S,1.68 0.65 0.02 -0.41 -0.04 -0.46,0.24,1 of 18 (3.25)
T28N S31E G103V S107Q,n.d. n.d. n.d. n.d. n.d. n.d.,n.d.,0 of 18
G61S S107T,0.38 0.42 0.71 1.03 0.38 0.55,0.58,0 of 18
T28S S31E D106I S107F,n.d. n.d. n.d. -0.63 n.d. 0.45,-0.09,0 of 18
N30D S63D A101T,n.d. 1.00 n.d. 2.83 1.54 1.91,1.82,0 of 18
T28S S31D G61S R100E,1.10 1.04 0.70 0.91 1.78 0.65,1.03,1 of 18 (3.43)
G61R R100Q A101T,n.d. 1.98 n.d. n.d. n.d. n.d.,1.98,0 of 18

Top 5 of the variants detected in all replicates, tightest first:

{"changes": "S31E G103V S107N", "log10 Kd, replicates": "-0.36 -0.35 -0.20 -0.79 -1.08 -0.77", "log10 Kd (nM), mean": "-0.59", "empty controls": "0 of 18"}
{"changes": "T28S S31Q G61S R100T", "log10 Kd, replicates": "-0.54 -0.52 -0.49 -0.39 -0.72 -0.33", "log10 Kd (nM), mean": "-0.50", "empty controls": "0 of 18"}
{"changes": "S31Q R56Q G61S A101T", "log10 Kd, replicates": "-0.27 -0.38 0.01 -0.27 -0.35 0.08", "log10 Kd (nM), mean": "-0.20", "empty controls": "0 of 18"}
{"changes": "S31E G61K A101N", "log10 Kd, replicates": "-0.18 0.08 0.10 -0.34 -0.18 -0.07", "log10 Kd (nM), mean": "-0.10", "empty controls": "0 of 18"}
{"changes": "T28G S31E G61I R100K", "log10 Kd, replicates": "0.38 0.48 -0.37 0.33 0.43 0.17", "log10 Kd (nM), mean": "0.24", "empty controls": "2 of 18 (2.03)"}

Values reported by Li et al. 2023, doi:10.1038/s41467-023-39022-2 (FLAb copy).